Data taken from paper PMC12155096 (International Journal of Molecular Sciences, 2025).

What was measured:
[1] = tested on: CYP1A2, 2C9, 2C19, 2D6, and 3A4; details: known CYP inducers; CYP isoform not specified
[2] = tested on: CYP1A2, 2C9, 2C19, 2D6, and 3A4 (isoform not given); experiment: in vitro; details: human

Compound | activity outcome in CYP assays [1] | IC50 at 1 h [2] [µM]
NC(=O)N1c2ccccc2C=Cc2ccccc21 [carbamazepine] | either inactive or inhibitors | –
Clc1ccc(COC(Cn2ccnc2)c2ccc(Cl)cc2Cl)cc1 (centres unmarked) [econazole] | – | < 2
N#C/C(=C1/SC[C@@H](c2ccc(Cl)cc2Cl)S1)n1ccnc1 [luliconazole, reference compound] | – | < 2
CCC1(c2ccccc2)C(=O)NC(=O)NC1=O [phenobarbital] | either inactive or inhibitors | –
O=C1NC(=O)C(c2ccccc2)(c2ccccc2)N1 [phenytoin] | either inactive or inhibitors | –
